{
  "source": "paper PMC10633918",
  "origin": "cited, not measured here",
  "key": {"[1]": {"biological_target": "PSMα3 (Staphylococcus aureus)"}},
  "data": [
    {"substance": "alpha-synuclein (type B* oligomers) (from UniProt P37840)", "values": [
      {"measurement": "Kd", "setting": "[1]", "result": 3.62, "unit": "nM"},
      {"measurement": "Kd", "setting": "LL-37 (Homo sapiens)", "result": 5.14, "unit": "nM"}
    ]}
  ]
}
